Results taken from PMC10724293, “New ruthenium-xanthoxylin complex eliminates colorectal cancer stem cells by targeting the heat shock protein 90 chaperone” (Cell Death & Disease, 2023).

Tested on: OVCAR-3
Assay: Alamar blue cytotoxicity assay
Format: cell-based
Conditions: Homo sapiens, 72 h, read-out: IC50 and 95%CI
Procedure: The Alamar blue assay was used to determine cell viability as previously described. Cells were seeded into 96-well plates at a density of 7 × 10^3 cells per well for adherent cells or 3 × 10^4 cells per well for suspended cells. The drug was added to each well after 24 h of incubation for adherent cells or immediately for suspended cells and incubated for an additional 72 h. […] Each well received 100 µM resazurin (Sigma-Aldrich Co. St. Louis, MO, United States) four (for cell lines) or 24 (for primary culture) h before the end of the incubation. A SpectraMax 190 Microplate Reader (Molecular Devices, Sunnyvale, CA, USA) was used to measure absorbance at 570 and 600 nm.

COc1cccc2c1C(=O)c1c(O)c3c(c(O)c1C2=O)C[C@@](O)(C(=O)CO)C[C@@H]3O[C@H]1C[C@H](N)[C@H](O)[C@H](C)O1 [DOX, Doxorubicin]
IC50: 1010 nM
